Reference: ChEMBL document CHEMBL1126740, “(S)- and (R)-8-(di-n-propylamino)-6,7,8,9-tetrahydro-3H-benz[e]indole-1-carbaldehyde: a new class of orally active 5-HT1A-receptor agonists” (J Med Chem, 1993)

Protein sequences, listed by entry. Tags and fused reporters are not part of them.
UniProt P61169, whole entry: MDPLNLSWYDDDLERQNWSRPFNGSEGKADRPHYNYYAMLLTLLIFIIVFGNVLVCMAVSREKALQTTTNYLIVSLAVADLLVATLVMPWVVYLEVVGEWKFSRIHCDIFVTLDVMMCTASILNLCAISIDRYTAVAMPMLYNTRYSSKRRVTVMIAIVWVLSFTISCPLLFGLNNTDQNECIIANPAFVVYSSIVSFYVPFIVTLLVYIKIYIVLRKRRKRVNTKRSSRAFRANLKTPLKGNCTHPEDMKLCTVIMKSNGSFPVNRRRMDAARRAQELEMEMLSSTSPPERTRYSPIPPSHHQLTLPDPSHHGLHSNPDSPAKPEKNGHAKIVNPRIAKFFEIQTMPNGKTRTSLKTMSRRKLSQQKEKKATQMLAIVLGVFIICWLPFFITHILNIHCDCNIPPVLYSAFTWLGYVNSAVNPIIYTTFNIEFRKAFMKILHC

Target: D(2) dopamine receptor (Rattus norvegicus, UniProt P61169)
Assay: Displacement of [3H]spiperone from dopamine receptor D2

Structure (SMILES)	Ki [nM]
CN(C)[C@@H]1CCc2ccc3[nH]ccc3c2C1	170
CN(C)C1CCc2ccc3[nH]ccc3c2C1 (racemic)	300
